Assay results as given in patent US20080318845A1, “Selective Vpac2 Receptor Peptide Agonists” (priority 2004, published 2008).
One block for each molecule: values may come before it.

The chains behind the UniProt entries cited, without tags or fusion partners. Residues count along the entry.
UniProt P35000, 23-437: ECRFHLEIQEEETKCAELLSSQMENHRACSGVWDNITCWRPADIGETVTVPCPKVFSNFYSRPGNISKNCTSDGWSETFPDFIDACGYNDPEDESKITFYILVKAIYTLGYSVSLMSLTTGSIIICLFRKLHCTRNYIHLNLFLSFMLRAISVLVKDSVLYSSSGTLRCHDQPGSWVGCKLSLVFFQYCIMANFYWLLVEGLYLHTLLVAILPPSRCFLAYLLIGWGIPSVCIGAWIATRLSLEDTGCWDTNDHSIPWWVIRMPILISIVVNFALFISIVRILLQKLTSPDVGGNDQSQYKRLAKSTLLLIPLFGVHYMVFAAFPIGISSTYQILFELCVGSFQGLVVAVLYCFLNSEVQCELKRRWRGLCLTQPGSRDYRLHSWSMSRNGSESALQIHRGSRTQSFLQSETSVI

Key:
[1] = target: rat VPAC2 receptor (rat) (UniProt P35000); experiment: cell-based or functional assay
[2] = target: T1, human VPAC2 receptor (human, UniProt P41587 24-438); experiment: filter binding on membranes, displacement of 125I-VIP
T1 construct: whole, on cells; stably expressed in a CHO-S cell line
T1 sequence (looked up): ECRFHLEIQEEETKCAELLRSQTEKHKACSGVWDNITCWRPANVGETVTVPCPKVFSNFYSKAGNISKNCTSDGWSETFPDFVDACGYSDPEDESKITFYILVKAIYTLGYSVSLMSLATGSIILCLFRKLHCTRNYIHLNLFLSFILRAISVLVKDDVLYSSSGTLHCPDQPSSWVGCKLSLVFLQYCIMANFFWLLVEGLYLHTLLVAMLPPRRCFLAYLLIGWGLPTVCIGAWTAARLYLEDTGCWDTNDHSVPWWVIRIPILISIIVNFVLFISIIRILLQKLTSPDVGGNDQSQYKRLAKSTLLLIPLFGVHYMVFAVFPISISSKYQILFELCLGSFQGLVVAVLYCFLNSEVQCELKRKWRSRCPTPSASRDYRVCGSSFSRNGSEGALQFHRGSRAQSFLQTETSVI

- EC50, cAMP generation (DiscoveRx) [1]: 0.79 nM
Molecule: vasoactive intestinal peptide (VIP)

- IC50 [2]: 2.52 nM
B1: pituitary adenylate cyclase-activating polypeptide PACAP-27 (peptide)
peptide: HSDGIFTDSYSRYRKQMAVKKYLAAVL
modifications: C-terminal amide (-NH2)
notes: 27 amino acid peptide with amidated carboxyl
